Measured values: patent US7070974B1, “Metalloproteases of the neprilysin family” (Universite de Montreal, priority 1999, dated 2006)

Key:
sNEP = biological target: T1, sNEP (Oryctolagus cuniculus, UniProt P08049); test: HPLC analysis of the hydrolysis of Leu-enkephalin by sNEP; format: biochemical; details: RP-HPLC, products Tyr-Gly-Gly and Phe-Leu
T1 construct: Fusion of a cleavable signal peptide to the ectodomain of neutral endopeptidase; cleavable signal peptide of proopiomelanocortin (replaces cytosolic and transmembrane domains) (N, cleaved yes); made in house; host or cells: LLC-PK1 cells transfected with pRcCMV-sNEP; concentrated culture medium
T1 sequence (P08049 52-750 limits assumed): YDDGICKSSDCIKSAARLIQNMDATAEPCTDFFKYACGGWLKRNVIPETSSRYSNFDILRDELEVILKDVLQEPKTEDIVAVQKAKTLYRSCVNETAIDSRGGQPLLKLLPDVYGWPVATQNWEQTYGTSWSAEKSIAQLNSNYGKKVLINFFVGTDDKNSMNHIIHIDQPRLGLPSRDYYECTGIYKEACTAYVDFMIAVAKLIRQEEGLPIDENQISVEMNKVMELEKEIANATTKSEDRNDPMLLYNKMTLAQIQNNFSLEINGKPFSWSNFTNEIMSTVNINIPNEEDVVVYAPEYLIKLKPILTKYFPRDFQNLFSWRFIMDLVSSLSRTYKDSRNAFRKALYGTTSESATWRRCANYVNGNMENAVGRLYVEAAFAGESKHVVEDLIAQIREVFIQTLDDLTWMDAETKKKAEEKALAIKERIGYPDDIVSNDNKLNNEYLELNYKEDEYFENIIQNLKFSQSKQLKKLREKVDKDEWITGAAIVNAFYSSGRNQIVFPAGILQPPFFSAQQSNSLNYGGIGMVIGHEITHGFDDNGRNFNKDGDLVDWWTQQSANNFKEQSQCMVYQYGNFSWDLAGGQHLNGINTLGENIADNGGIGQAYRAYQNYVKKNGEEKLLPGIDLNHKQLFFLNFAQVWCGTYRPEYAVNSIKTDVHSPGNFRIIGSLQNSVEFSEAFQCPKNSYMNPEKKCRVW
From the text: (§1) Hydrolysis products were separated by reversed-phase HPLC as described previously.

NL1 = biological target: T2, NL1 (Mus musculus, UniProt Q9JLI3); test: HPLC analysis of the hydrolysis of Leu-enkephalin by NL1; format: biochemical; set-up: The soluble form of NL-1 was assayed for activity; made in house; host or cells: HEK 293 cells (section 2, pCDNA3/RSV); details: RP-HPLC, products Tyr-Gly-Gly and Phe-Leu
T2 sequence (Q9JLI3 63-765 limits assumed): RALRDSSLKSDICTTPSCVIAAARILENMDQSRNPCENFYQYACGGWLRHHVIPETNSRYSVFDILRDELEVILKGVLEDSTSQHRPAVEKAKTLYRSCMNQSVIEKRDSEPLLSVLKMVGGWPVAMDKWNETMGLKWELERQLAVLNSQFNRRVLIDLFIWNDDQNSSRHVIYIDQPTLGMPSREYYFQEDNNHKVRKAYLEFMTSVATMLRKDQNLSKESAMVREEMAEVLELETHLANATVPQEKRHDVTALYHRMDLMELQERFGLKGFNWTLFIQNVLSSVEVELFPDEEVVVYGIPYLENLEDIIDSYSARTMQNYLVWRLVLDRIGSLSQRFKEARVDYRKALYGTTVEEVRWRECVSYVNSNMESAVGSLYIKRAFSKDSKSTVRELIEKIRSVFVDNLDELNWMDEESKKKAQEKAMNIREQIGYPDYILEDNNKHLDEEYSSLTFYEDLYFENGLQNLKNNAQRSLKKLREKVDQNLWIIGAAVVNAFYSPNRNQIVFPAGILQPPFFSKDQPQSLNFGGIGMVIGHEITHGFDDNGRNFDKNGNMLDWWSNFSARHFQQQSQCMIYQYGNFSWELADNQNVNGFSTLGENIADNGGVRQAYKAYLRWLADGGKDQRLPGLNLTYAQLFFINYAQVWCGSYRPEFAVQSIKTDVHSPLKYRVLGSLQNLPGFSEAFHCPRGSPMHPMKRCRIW
From the text: as §1

Substance: Leu5-enkephalin
- peptide bond cleaved (sNEP): Gly3-Phe4
- peptide bond cleaved (NL1): Gly3-Phe4
